Assay results published in patent US12478617B2, “Lipidated peptide inhibitors of interleukin-23 receptor” (JANSSEN BIOTECH, INC., priority 2021, dated 2025).

Target: T1, IL-23R (Homo sapiens, UniProt Q5VWK5)
T1 construct: HEK293 cells containing IL-23R, IL-12RP31 and a firefly luciferase reporter gene driven by a STAT-inducible promoter (Promega); host or cells: HEK293
T1 sequence (Q5VWK5 24-629): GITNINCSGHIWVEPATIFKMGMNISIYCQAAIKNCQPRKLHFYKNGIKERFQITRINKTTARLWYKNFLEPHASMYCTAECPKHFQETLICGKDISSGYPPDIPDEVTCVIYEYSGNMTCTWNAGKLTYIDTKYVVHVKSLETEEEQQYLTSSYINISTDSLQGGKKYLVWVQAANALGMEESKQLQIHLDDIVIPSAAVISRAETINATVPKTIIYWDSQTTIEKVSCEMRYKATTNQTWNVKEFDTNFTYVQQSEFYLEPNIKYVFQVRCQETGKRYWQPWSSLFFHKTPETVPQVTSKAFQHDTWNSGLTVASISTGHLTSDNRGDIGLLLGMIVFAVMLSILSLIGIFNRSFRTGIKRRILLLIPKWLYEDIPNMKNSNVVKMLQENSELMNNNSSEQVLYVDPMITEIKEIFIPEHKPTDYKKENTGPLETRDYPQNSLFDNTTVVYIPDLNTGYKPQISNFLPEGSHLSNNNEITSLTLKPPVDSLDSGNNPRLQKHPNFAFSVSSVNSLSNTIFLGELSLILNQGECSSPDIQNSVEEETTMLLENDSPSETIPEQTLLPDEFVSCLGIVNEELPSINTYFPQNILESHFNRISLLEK
Assay: IL23R Reporter Assay
Assay type: cell-based
Conditions: HEK293 cells containing IL-23R, IL-12Rβ1 and STAT-inducible firefly luciferase reporter; 10 ng/mL IL-23 (EC90); 5 h at 37° C.; read-out: IC50
Description: IL-23 binding to IL-23 receptors results in the activation of the Signal Transducer and Activator of Transcription 3 (STAT3) by phosphorylation and downstream signaling events. Accordingly. the ability of the inhibitors described herein to block IL-23 action can be assessed by monitoring the status of STAT3 activation in response to IL-23. This may be accomplished in reporter cell assays or in intact cells such as peripheral blood mononuclear cells (PBMCs).
Compounds were serially diluted in 100% (v/v) DMSO) and plated using an Echo acoustic dispenser (Labcyte) into 1536-well non-treated black assay plates (Corning #9146). 3 µL of HEK293 cells containing IL-23R, IL-12RP31 and a firefly luciferase reporter gene driven by a STAT-inducible promoter (Promega) were added to the plates (4000 cells/well), followed by 3 μL of 10 ng/mL IL-23 (equivalent to EC90 concentration). After 5 h at 37° C., 5% CO2, 95% relative humidity, cells were placed at 20° C. and treated with BioGlo reagent (Promega) according to the Manufacturer's instructions. Luminescence was measured on a Pherastar FSX (BMG LabTech). The data, provided in Tables 5a and 5b, were normalized to IL-23 treatment (0% inhibition) and 30 μM of control inhibitor (100% inhibition), and IC50 values were determined using a 4-parameter Hill equation.

Row | IC50 | Compound
1 | 0.094 nM | CC(=O)NCCCC[C@@H]1NC(=O)[C@H](Cc2c[nH]c3c(C)cccc23)NC(=O)[C@H]([C@@H](C)O)NC(=O)[C@H](CCCCNC(=O)COCCOCCNC(=O)COCCOCCNC(=O)CC[C@H](NC(=O)[C@H]2CC[C@H](CNC(=O)CCCCCCCCCCCCCCCCC(=O)O)CC2)C(=O)O)NC(=O)[C@@H](NC(C)=O)C(C)(C)SSC(C)(C)[C@@H](C(=O)N[C@@H](Cc2ccc(OCCN)cc2)C(=O)N[C@@H](Cc2ccc3ccccc3c2)C(=O)NC2(C(=O)N[C@@H](CCCCNC(C)=O)C(=O)N[C@@H](CC(N)=O)C(=O)N[C@@H](Cc3cccnc3)C(=O)N(C)CC(N)=O)CCOCC2)NC1=O [Example 73, MeCO-Pen*-K(PEG2PEG2gETrxC18OH)-T-7MeW-K(Ac)-Pen*-AEF-2Nal-THP-K(Ac)-N-3Pya-Sar-CONH2]
2 | 0.17 nM | CC(=O)NCCCC[C@@H]1NC(=O)[C@H](Cc2c[nH]c3c(C)cccc23)NC(=O)[C@H]([C@@H](C)O)NC(=O)[C@H](CCCCNC(=O)COCCOCCNC(=O)COCCOCCNC(=O)CC[C@H](NC(=O)[C@H]2CC[C@H](CNC(=O)CCCCCCCCCCCCCCCCCCC(=O)O)CC2)C(=O)O)NC(=O)[C@@H](NC(C)=O)C(C)(C)SSC(C)(C)[C@@H](C(=O)N[C@@H](Cc2ccc(OCCN)cc2)C(=O)N[C@@H](Cc2ccc3ccccc3c2)C(=O)NC2(C(=O)N[C@@H](CCCCNC(C)=O)C(=O)N[C@@H](CC(N)=O)C(=O)N[C@@H](Cc3cccnc3)C(=O)N(C)CC(N)=O)CCOCC2)NC1=O [Example 74, MeCO-Pen*-K(PEG2PEG2gETrxC20OH)-T-7MeW-K(Ac)-Pen*-AEF-2Nal-THP-K(Ac)-N-3Pya-Sar-CONH2]
3 | 0.046 nM | CCCCCCCCCCCCCCCCCC(=O)N[C@@H](CCC(=O)NCCOCCOCC(=O)NCCOCCOCC(=O)NCCCC[C@@H]1NC(=O)[C@@H](NC(C)=O)C(C)(C)SSC(C)(C)[C@@H](C(=O)N[C@@H](Cc2ccc(OCCN)cc2)C(=O)N[C@@H](Cc2ccc3ccccc3c2)C(=O)NC2(C(=O)N[C@@H](CCCCNC(C)=O)C(=O)N[C@@H](CC(N)=O)C(=O)N[C@@H](Cc3cccnc3)C(=O)N(C)CC(N)=O)CCOCC2)NC(=O)[C@H](CCCCNC(C)=O)NC(=O)[C@H](Cc2c[nH]c3c(C)cccc23)NC(=O)[C@H]([C@@H](C)O)NC1=O)C(=O)O [Example 84, MeCO-Pen*-K(PEG2PEG2gEC18)-T-7MeW-K(Ac)-Pen*-AEF-2Nal-THP-K(Ac)-N-3Pya-Sar-CONH2]
4 | 0.031 nM | CC(=O)NCCCC[C@@H]1NC(=O)[C@H](Cc2c[nH]c3c(C)cccc23)NC(=O)[C@H]([C@@H](C)O)NC(=O)[C@H](CCCCNC(=O)COCCOCCNC(=O)COCCOCCNC(=O)CC[C@H](NC(=O)CCCCCCCCCCCCCCC(=O)O)C(=O)O)NC(=O)[C@@H](NC(C)=O)C(C)(C)SSC(C)(C)[C@@H](C(=O)N[C@@H](Cc2ccc(OCCN)cc2)C(=O)N[C@@H](Cc2ccc3ccccc3c2)C(=O)NC2(C(=O)N[C@@H](CCCCNC(C)=O)C(=O)N[C@@H](CC(N)=O)C(=O)N[C@@H](Cc3cccnc3)C(=O)N(C)CC(N)=O)CCOCC2)NC1=O [Example 85, MeCO-Pen*-K(PEG2PEG2gEC16OH)-T-7MeW-K(Ac)-Pen*-AEF-2Nal-THP-K(Ac)-N-3Pya-Sar-CONH2]
5 | 0.12 nM | CC(=O)NCCCC[C@@H]1NC(=O)[C@H](Cc2c[nH]c3c(C)cccc23)NC(=O)[C@H]([C@@H](C)O)NC(=O)[C@H](CC(N)=O)NC(=O)[C@@H](NC(C)=O)C(C)(C)SSC(C)(C)[C@@H](C(=O)N[C@@H](Cc2ccc(OCCN)cc2)C(=O)N[C@@H](Cc2ccc3ccccc3c2)C(=O)NC2(C(=O)N[C@@H](CCCCNC(=O)COCCOCCNC(=O)COCCOCCNC(=O)[C@H]3CC[C@H](CNC(=O)CC[C@H](NC(=O)CCCCCCCCCCCCCCCCC(=O)O)C(=O)O)CC3)C(=O)N[C@@H](CC(N)=O)C(=O)N[C@@H](Cc3cccnc3)C(=O)N(C)CC(N)=O)CCOCC2)NC1=O [Example 90, MeCO-Pen*-N-T-7MeW-K(Ac)-Pen*-AEF-2Nal-THP-K(PEG2PEG2TrxgEC18OH)-N-3Pya-Sar-CONH2]
6 | 0.18 nM | CC(=O)NCCCC[C@@H]1NC(=O)[C@H](Cc2c[nH]c3c(C)cccc23)NC(=O)[C@H]([C@@H](C)O)NC(=O)[C@H](CC(N)=O)NC(=O)[C@@H](NC(C)=O)C(C)(C)SSC(C)(C)[C@@H](C(=O)N[C@@H](Cc2ccc(OCCN)cc2)C(=O)N[C@@H](Cc2ccc3ccccc3c2)C(=O)NC2(C(=O)N[C@@H](CCCCNC(=O)COCCOCCNC(=O)COCCOCCNC(=O)[C@H]3CC[C@H](CNC(=O)CC[C@H](NC(=O)CCCCCCCCCCCCCCCCCCC(=O)O)C(=O)O)CC3)C(=O)N[C@@H](CC(N)=O)C(=O)N[C@@H](Cc3cccnc3)C(=O)N(C)CC(N)=O)CCOCC2)NC1=O [Example 92, MeCO-Pen*-N-T-7MeW-K(Ac)-Pen*-AEF-2Nal-THP-K(PEG2PEG2TrxgEC20OH)-N-3Pya-Sar-CONH2]

More lines, now with the values behind:

Row | Compound | IC50
7 | CC(=O)NCCCC[C@@H]1NC(=O)[C@H](Cc2c[nH]c3c(C)cccc23)NC(=O)[C@H]([C@@H](C)O)NC(=O)[C@H](CCCCNC(=O)COCCOCCNC(=O)CCOCCOCCOCCOCCOCCOCCNC(=O)CC[C@H](NC(=O)CCCCCCCCCCCCCCCCC(=O)O)C(=O)O)NC(=O)[C@@H](NC(=O)[C@@H](CCCNC(=N)N)NC(C)=O)C(C)(C)SSC(C)(C)[C@@H](C(=O)N[C@@H](Cc2ccc(OCCN)cc2)C(=O)N[C@@H](Cc2ccc3ccccc3c2)C(=O)NC2(C(=O)N[C@@H](CCCCNC(C)=O)C(=O)N[C@@H](CC(N)=O)C(=O)N[C@@H](Cc3cccnc3)C(=O)N(C)CC(N)=O)CCOCC2)NC1=O [Example 64, MeCO-r-Pen*-K(PEG2PEG6 gE C18OH)-T-7MeW-K(Ac)-Pen*-AEF-2Nal-THP-K(Ac)-N-3Pya-Sar-CONH2] | 0.055 nM
8 | CC(=O)NCCCC[C@@H]1NC(=O)[C@H](Cc2c[nH]c3c(C)cccc23)NC(=O)[C@H]([C@@H](C)O)NC(=O)[C@H](CC(N)=O)NC(=O)[C@@H](NC(=O)[C@@H](CCCNC(=N)N)NC(C)=O)C(C)(C)SSC(C)(C)[C@@H](C(=O)N[C@@H](Cc2ccc(OCCN)cc2)C(=O)N[C@@H](Cc2ccc3ccccc3c2)C(=O)NC2(C(=O)N[C@@H](CCCCNC(=O)COCCOCCNC(=O)COCCOCCNC(=O)[C@H]3CCCN3C(=O)[C@H]3CCCN3C(=O)[C@H]3CCCN3C(=O)CCCCCCCCCCCCCCCCC(=O)O)C(=O)N[C@@H](CC(N)=O)C(=O)N[C@@H](Cc3cccnc3)C(=O)N(C)CC(N)=O)CCOCC2)NC1=O [Example 66, MeCO-r-Pen*-N-T-7MeW-K(Ac)-Pen*-AEF-2Nal-THP-K(PEG2PEG2pppC18OH)-N-3Pya-Sar-CONH2] | 0.18 nM
9 | CCCCCCCCCCCCCCCC(=O)N[C@@H](CCC(=O)NCCCC[C@@H](NC(C)=O)C(=O)N[C@@H]1C(=O)N[C@@H](CC(N)=O)C(=O)N[C@@H]([C@@H](C)O)C(=O)N[C@@H](Cc2c[nH]c3c(C)cccc23)C(=O)N[C@@H](CCCCNC(C)=O)C(=O)N[C@H](C(=O)N[C@@H](Cc2ccc(OCCN)cc2)C(=O)N[C@@H](Cc2ccc3ccccc3c2)C(=O)NC2(C(=O)N[C@@H](CCCCNC(C)=O)C(=O)N[C@@H](CC(N)=O)C(=O)N[C@@H](Cc3cccnc3)C(=O)N(C)CC(N)=O)CCOCC2)C(C)(C)SSC1(C)C)C(=O)O [Example 67, MeCO-k(gEC16)-Pen*-N-T-7MeW-K(Ac)-Pen*-AEF-2Nal-THP-K(Ac)-N-3Pya-Sar-CONH2] | 0.035 nM
10 | CCCCCCCCCCCCCCCCCC(=O)N[C@@H](CCC(=O)NCCCC[C@@H]1NC(=O)[C@@H](NC(=O)[C@@H](CCCNC(=N)N)NC(C)=O)C(C)(C)SSC(C)(C)[C@@H](C(=O)N[C@@H](Cc2ccc(OCCN)cc2)C(=O)N[C@@H](Cc2ccc3ccccc3c2)C(=O)NC2(C(=O)N[C@@H](CCCCNC(C)=O)C(=O)N[C@@H](CC(N)=O)C(=O)N[C@@H](Cc3cccnc3)C(=O)N(C)CC(N)=O)CCOCC2)NC(=O)[C@H](CCCCNC(C)=O)NC(=O)[C@H](Cc2c[nH]c3c(C)cccc23)NC(=O)[C@H]([C@@H](C)O)NC1=O)C(=O)O [Example 70, MeCO-r-Pen*-K(gEC18)-T-7MeW-K(Ac)-Pen*-AEF-2Nal-THP-K(Ac)-N-3Pya-Sar-CONH2] | 0.23 nM
